## AlphaSeq binding of Ab-95 light chain variants to a spike HR2 peptide

Data: MIT Lincoln Laboratory AlphaSeq set, Engelhart et al. 2022, doi:10.1038/s41597-022-01779-4, as distributed in FLAb.

All variants were tested on one target, the spike HR2 peptide PDVDLGDISGINAS (SARS-CoV-2).

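Variants in AAYL52 differ from the parent at up to three CDR positions; double and triple changes were sampled at random. Affinity was read by AlphaSeq, a pooled yeast mating assay with surface-displayed partners. Binding brings cells together so that they mate, and sequencing counts the barcode pairs among the diploids. A regression on co-assayed BCL2-family reference pairs converts the normalised counts of each replicate to an apparent Kd. The assay was run in three technical replicates.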

Parent scFv Ab-95: VH joined to VL by a 15-residue (Gly4Ser)3 linker. Changes lie in the light chain CDRs alone.
VH: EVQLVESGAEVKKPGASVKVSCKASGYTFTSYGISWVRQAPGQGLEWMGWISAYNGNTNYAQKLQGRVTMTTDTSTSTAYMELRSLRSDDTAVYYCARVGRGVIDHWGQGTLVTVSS
VL: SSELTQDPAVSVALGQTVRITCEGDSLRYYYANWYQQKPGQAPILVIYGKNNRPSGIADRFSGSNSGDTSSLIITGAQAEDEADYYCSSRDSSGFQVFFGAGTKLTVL

Variants are written as CDR1, CDR2 and CDR3 of the light chain (limits as in the source). Parent: EGDSLRYYYAN, GKNNRPS, SSRDSSGFQVF. Values are log10 of the apparent Kd in nM; lower means stronger binding. Averages over replicates are reported, and they cover detected replicates only. "n.d." marks a missing value. The strain was present, yet no cells mated with the target were sequenced in that replicate, which points to weak or no binding. Background: pairings of library AAYL52 with three empty control strains gave a value in 28% of cases (median 3.91, 5th percentile 2.90). Values in that range, when seen in few replicates, are hard to tell from nonspecific mating. For each scFv, signals with the empty controls are counted beside the result, with their mean in brackets.

CDR-L1 | CDR-L2 | CDR-L3 | log10 Kd, replicates | mean, log10 nM | control signals
EGDSLRYYYAN | GKNNRPS | ISRDSSGFQVF | 3.75 / 5.02 / n.d. | 4.39 | 1/9 (4.73)
EGDSLTYYYAN | GKNIHPS | SSRDSSGFQVF | n.d. / 3.72 / n.d. | 3.72 | 4/9 (3.86)
EGDSLGYYYAN | GKNNRPS | SSRDSSGTQVY | 2.27 / 2.11 / 2.09 | 2.16 | 5/9 (3.79)
EGDSHRYYYAN | GKNNRPS | SSRDSKGFQVG | 5.29 / 5.66 / n.d. | 5.47 | 6/9 (3.85)
EGDSLRYYYAN | GKNNRPS | SSRDSSGDQDF | 2.68 / 2.87 / 2.27 | 2.61 | 2/9 (4.67)
EQDSLRYYYAN | GKNNRPS | SSRDESGFDVF | n.d. / n.d. / n.d. | n.d. | 2/9 (3.70)
EGDSLRYYYAN | GKNDGPS | SNRDSSGFQVF | n.d. / n.d. / 4.30 | 4.30 | 3/9 (3.65)
EGDSLRYYTAN | GKNNYPS | SSRDSSGFQVN | 4.14 / 5.21 / n.d. | 4.68 | 0/9
EGDSLRYYYEN | GKNNRPS | SSEDSSGFKVF | 5.63 / n.d. / 3.91 | 4.77 | 2/9 (4.06)
EWDSLNYYYAN | GANNRPS | SSRDSSGFQVF | 2.91 / 4.35 / n.d. | 3.63 | 1/9 (3.26)
EGDSLRYYYAN | GKNNRPT | AHRDSSGFQVF | 2.60 / 2.79 / 3.58 | 2.99 | 6/9 (4.21)
EGDSLRYYYAN | GFNNRPS | SSRDSSGFQEF | 4.06 / 4.42 / n.d. | 4.24 | 2/9 (3.66)
EPDSLRYEYAN | GANNRPS | SSRDSSGFQVF | 2.74 / 2.49 / 2.40 | 2.54 | 2/9 (4.36)
EGDSLRYYYAH | GKNNRPG | SSRDSSSFQVF | 5.13 / 3.38 / n.d. | 4.26 | 2/9 (4.26)
EFDLLRYYYAN | GKNNRPS | SSWDSSGFQVF | 3.92 / n.d. / 4.54 | 4.23 | 5/9 (3.43)
EGDSCRYYYAN | GKNNRPS | RSRDSSGFQTF | 2.79 / 3.21 / 3.09 | 3.03 | 3/9 (3.93)
EGDSLRYYYAL | GKNNRPS | SSQDSSGIQVF | 4.80 / n.d. / n.d. | 4.80 | 0/9
EGDSLRYYYAN | GKQNRNS | SSRDSSGFQVE | 2.96 / 4.66 / 3.46 | 3.70 | 3/9 (3.62)
EGDSLRYYYAN | GKNNRPL | SSRFSSGFTVF | 2.93 / 2.37 / 2.52 | 2.61 | 4/9 (4.47)
EGDSLKYYYAN | GKNNRPS | YSRDSHGFQVF | 4.34 / 2.95 / 3.71 | 3.67 | 1/9 (3.61)
EGDSLQYYYAC | GKNNRPY | SSRDSSGFQVF | n.d. / n.d. / n.d. | n.d. | 1/9 (3.49)
EGDSLRYYYAN | GKNNRPS | DSRDSKGFFVF | 3.03 / 3.40 / 4.15 | 3.53 | 2/9 (4.94)
EGDSLRAYYAN | GKNNRPS | GSADSSGFQVF | 2.07 / 1.92 / 2.06 | 2.01 | 2/9 (3.88)
EGDSLCNYYAN | GKNNRPS | SSNDSSGFQVF | 3.01 / 3.68 / n.d. | 3.34 | 1/9 (4.84)
EGDSLRYYYAN | GKNIRTS | SSRDYSGFQVF | 2.77 / 2.83 / 3.63 | 3.08 | 1/9 (3.28)
NGLSLRYYYAN | GKNNRPT | SSRDSSGFQVF | 2.38 / 4.00 / 2.53 | 2.97 | 0/9
RGDSLRYYYAN | GKNNRPS | FCRDSSGFQVF | 2.25 / 2.48 / 1.85 | 2.19 | 4/9 (4.03)
EGYSLRYYYAN | GKNNRPS | SLLDSSGFQVF | 2.20 / 2.34 / 2.09 | 2.21 | 1/9 (3.19)
EGDSLRYDYAW | GKNNIPS | SSRDSSGFQVF | 5.53 / 3.39 / n.d. | 4.46 | 2/9 (4.08)
EGDVLRNYYAN | GKNTRPS | SSRDSSGFQVF | 2.22 / 2.32 / 2.09 | 2.21 | 2/9 (4.17)
EGDSLLYYYAN | GKNNRPS | SSMDSSAFQVF | 4.42 / 5.72 / 4.16 | 4.77 | 2/9 (3.53)
EGDSLRYYYAN | GKRNRPS | SSWDCSGFQVF | 2.88 / 2.50 / 3.22 | 2.87 | 1/9 (3.71)
ESDSLRYYYAN | GKQNRPS | SSRDSSGFQVE | n.d. / n.d. / 4.10 | 4.10 | 1/9 (4.64)
EGESLRYYDAN | GKNNRPS | SSVDSSGFQVF | 2.85 / n.d. / 2.67 | 2.76 | 1/9 (4.12)
EGDSIRYYGAN | GKNNRPS | SSRDSSGHQVF | 3.61 / 3.26 / 3.83 | 3.57 | 2/9 (4.24)
EGDSLRYIYAN | GKNNRVS | SSRDSSGFQVF | 2.90 / 3.09 / 3.32 | 3.10 | 3/9 (3.45)
EGDSLRYYYAN | GKNNRES | SSRDSSKFQTF | n.d. / n.d. / n.d. | n.d. | 0/9
EGDSLDYYYAN | TKNNRPS | SSRDCSGFQVF | n.d. / 3.66 / 3.81 | 3.74 | 2/9 (4.81)
EGDSAYYYYAN | GKNNRPS | SSRDSSGFQVD | 4.52 / 3.24 / n.d. | 3.88 | 4/9 (3.83)
EGDSLRYYYAF | GKNNRPS | SSRDSSGFQVA | 2.46 / 2.30 / 1.81 | 2.19 | 2/9 (3.56)

The last 5 entries again:

CDR-L1	CDR-L2	CDR-L3	log10 Kd, replicates	mean, log10 nM	control signals
EGDSLRYIYAN	GKNNRVS	SSRDSSGFQVF	2.90 / 3.09 / 3.32	3.10	3/9 (3.45)
EGDSLRYYYAN	GKNNRES	SSRDSSKFQTF	n.d. / n.d. / n.d.	n.d.	0/9
EGDSLDYYYAN	TKNNRPS	SSRDCSGFQVF	n.d. / 3.66 / 3.81	3.74	2/9 (4.81)
EGDSAYYYYAN	GKNNRPS	SSRDSSGFQVD	4.52 / 3.24 / n.d.	3.88	4/9 (3.83)
EGDSLRYYYAF	GKNNRPS	SSRDSSGFQVA	2.46 / 2.30 / 1.81	2.19	2/9 (3.56)